Reference: patent publication US5077034A, “Treatment of tumors with 5-radioiodo-2'-deoxyuridine” (priority 1990, dated 1991)

Columns and labels:
9L gliosarcoma [1] = assay: scintigraphic imaging of intracerebral 9L gliosarcoma-bearing and sham-operated rats
9L gliosarcoma [2] = assay: biodistribution of radioactivity 40 h after intracerebral injection in 9L gliosarcoma-bearing and sham-operated rats
[3] = test system: murine ovarian tumor (MOT); assay: biodistribution after i.p. injection in mice with murine ovarian tumor (MOT); format: in vivo, C3HeB/FeJ mice; details: 5 i.p. injections 4 h apart, 24 h after last injection
Description: The murine ovarian tumor (MOT) used in these experiments arose spontaneously in the ovary of a C3H mouse and is maintained in our laboratories by serial intraperitoneal [i.p.] transplantation in female C3HeB/FeJ mice. We have examined the appropriateness of the i.p. route for IUdR administration as a means to (i) bypass the rapid intrahepatic dehalogenation of this agent, and (ii) obtain high tumor to nontumor ratios. In these experiments, mice were injected with 10^6 tumor cells 24 h prior to the i.p. administration of ^125 IUdR [5 injections, 4 h apart]. […] Tumor-to-normal-tissue ratios derived from th biodistribution results ranged from 20 for organs with actively proliferating cells (for example uterus, intestine, stomach) to over 400 for organs with nondividing cells (brain, heart).

| Compound | ratio of mean counts per pixel in the head, tumor bearing / control (9L gliosarcoma [1]; 1 h after injection) | ratio of mean counts per pixel in the head, tumor bearing / control (maximum) (9L gliosarcoma [1]; by 38 h) | tumor to normal tissue ratios, all the tissues (9L gliosarcoma [2]; 40 h, FIG. 3) | uptake in a tumor that occupied a large portion of the right brain specimen (9L gliosarcoma [2]; one animal, 40 h after injection) | right brain/blood ratio (9L gliosarcoma [2]; tumor-bearing animals, 40 h) | right brain/frontal lobes ratio (9L gliosarcoma [2]; tumor-bearing animals, 40 h) | right brain/left brain ratio (9L gliosarcoma [2]; tumor-bearing animals, 40 h) | tumor to non-tumor ratios ([3]; FIG. 4) | tumor-to-normal-tissue ratio, organs with nondividing cells ([3]; brain, heart) | tumor-to-normal-tissue ratio, organs with actively proliferating cells ([3]; uterus, intestine, stomach) |
| --- | --- | --- | --- | --- | --- | --- | --- | --- | --- | --- |
| O=c1[nH]c(=O)n([C@H]2C[C@H](O)[C@@H](CO)O2)cc1[123I] [^123 IUdR, 5-[^123 I/^125 I]iodo-2'-deoxyuridine] | at least twice | 3.8 | eight | 25 % of the ID | 9 | 71 | 22 |  |  |  |
| O=c1[nH]c(=O)n([C@H]2C[C@H](O)[C@@H](CO)O2)cc1[125I] [^125 IUdR, 5-[^123 I/^125 I]iodo-2'-deoxyuridine] |  |  |  |  |  |  |  | extremely favorable | over 400 | 20 |
